Assays:
[1] = target: pPDGFRβ in normal human dermal fibroblasts (NHDF) (Homo sapiens (Human), UniProt P09619); assay: Cellular pPDGFRβ inhibition assay; format: cell-based; conditions: NHDF stimulated with 50 ng/ml PDGF-BB, 1 h
Description: Normal human dermal fibroblasts (NHDF; Promocell, Cat. No. C-12300; passage 2-7) were sown in a quantity of 7×10^3 cells/well in 48-well plates (Falcon™ MultiWell Cell Culture Plates, Falcon, Cat. No. B3668-3B) and incubated at 37° C., 5% CO2 and 95% relative air humidity overnight in minimal medium supplemented with GlutaMAX™ (Minimum Essential Medium, Gibco, Cat. No. 41090-028), 10% heat-inactivated (30 min at 56° C.) foetal calf serum (FBS; BioWhittaker, Lonza, Cat. No. DE14-801F) and 5 μg/ml insulin (Insulin solution human, Sigma, Cat. No. 19278). The next day, the GlutaMAX™-supplemented minimal medium was replaced by the Opti-MEM® I Reduced Serum Medium (Gibco, Cat. No. 31985-047) and incubated again under the conditions described above for 3 h. Thereafter, 50 ng/ml recombinant human PDGF-BB (R&D Systems, Cat. No. 220-BB-050) and a dilution series of the test substances to be examined in DMSO were added to the cells. The total volume per well was 100 μl. […] The lysed cell samples were either stored at −20° C. or analysed immediately after the lysis in a Meso Scale SECTOR® Imager 2400 according to the abovementioned manufacturer's instructions. […] The IC50 values were calculated by employing the nonlinear regression (curve fit) function of GraphPad Prism 6 (La Jolla, Calif., USA).

Sequences of proteins named here, by UniProt entry; tags and fusion partners are left off. Residues count along the entry.
UniProt P09619, 33-1106: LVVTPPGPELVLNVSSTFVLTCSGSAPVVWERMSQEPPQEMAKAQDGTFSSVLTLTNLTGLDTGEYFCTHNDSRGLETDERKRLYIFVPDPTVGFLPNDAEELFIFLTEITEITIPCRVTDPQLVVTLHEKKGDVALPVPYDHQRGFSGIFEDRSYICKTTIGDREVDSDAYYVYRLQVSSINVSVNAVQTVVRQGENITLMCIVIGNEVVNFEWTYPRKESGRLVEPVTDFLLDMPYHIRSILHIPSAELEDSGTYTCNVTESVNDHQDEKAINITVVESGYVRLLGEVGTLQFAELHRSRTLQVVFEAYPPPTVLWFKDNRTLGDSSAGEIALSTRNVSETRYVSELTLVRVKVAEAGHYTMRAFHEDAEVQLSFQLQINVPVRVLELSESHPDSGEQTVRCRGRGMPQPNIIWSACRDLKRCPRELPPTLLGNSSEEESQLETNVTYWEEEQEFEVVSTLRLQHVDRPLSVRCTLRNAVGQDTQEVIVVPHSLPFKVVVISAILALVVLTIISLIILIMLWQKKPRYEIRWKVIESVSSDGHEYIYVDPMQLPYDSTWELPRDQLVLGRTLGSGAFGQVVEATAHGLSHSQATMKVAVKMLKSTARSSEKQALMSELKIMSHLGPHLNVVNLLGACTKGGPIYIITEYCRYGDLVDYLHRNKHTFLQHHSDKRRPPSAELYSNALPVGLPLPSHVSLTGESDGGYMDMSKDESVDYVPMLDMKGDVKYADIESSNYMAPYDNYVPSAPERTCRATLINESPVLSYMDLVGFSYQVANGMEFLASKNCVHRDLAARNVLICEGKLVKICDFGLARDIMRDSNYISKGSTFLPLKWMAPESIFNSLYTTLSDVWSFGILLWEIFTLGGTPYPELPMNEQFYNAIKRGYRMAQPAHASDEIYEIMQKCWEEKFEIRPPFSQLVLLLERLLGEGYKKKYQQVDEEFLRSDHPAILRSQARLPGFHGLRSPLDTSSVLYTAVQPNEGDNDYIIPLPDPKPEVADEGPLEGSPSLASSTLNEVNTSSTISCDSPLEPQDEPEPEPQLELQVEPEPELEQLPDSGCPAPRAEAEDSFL

human PDGFRβ = human PDGFRβ (Homo sapiens (Human), UniProt P09619); assay: PDGFRβ kinase assay (PDGFRβ-HTRF); format: biochemical; conditions: 10 μM ATP; some mean values from multiple determinations
Description: The PDGFRβ-inhibitory activity of the inventive compounds was determined in the PDGFRβ-HTRF assay described hereinafter.
The IC50 values were calculated by a 4-parameter fit.

SMILES | IC50 [1] [nM] | IC50 (human PDGFRβ) [nM]
Cc1cc(F)c(Nc2ccnc3c2C(=O)Nc2cc(CN4CCCC(CCO)C4)ccc2N3)cc1O (racemic) [Example 58, rac-4-[(2-Fluoro-5-hydroxy-4-methylphenyl)amino]-8-{[3-(2-hydroxyethyl)piperidin-1-yl]methyl}-6,11-dihydro-5H-pyrido[2,3-b][1,5]benzodiazepin-5-one] | 28.7 | 
CCN(CCO)Cc1ccc2c(c1)NC(=O)c1c(Nc3cc(O)c(C)cc3F)ccnc1N2 [Example 52, 8-{[Ethyl(2-hydroxyethyl)amino]methyl}-4-[(2-fluoro-5-hydroxy-4-methylphenyl)amino]-6,11-dihydro-5H-pyrido[2,3-b][1,5]benzodiazepin-5-one] | 29.7 | 1.1

From patent US10047096B2, “Substituted pyridobenzodiazepinone-derivatives and use thereof” (Bayer Pharma Aktiengesellschaft, priority 2014, dated 2018)
